Experimental data as given in patent US10961232B2.

Protein sequences, listed by entry. Tags and fused reporters are not part of them.
UniProt Q13535, whole entry: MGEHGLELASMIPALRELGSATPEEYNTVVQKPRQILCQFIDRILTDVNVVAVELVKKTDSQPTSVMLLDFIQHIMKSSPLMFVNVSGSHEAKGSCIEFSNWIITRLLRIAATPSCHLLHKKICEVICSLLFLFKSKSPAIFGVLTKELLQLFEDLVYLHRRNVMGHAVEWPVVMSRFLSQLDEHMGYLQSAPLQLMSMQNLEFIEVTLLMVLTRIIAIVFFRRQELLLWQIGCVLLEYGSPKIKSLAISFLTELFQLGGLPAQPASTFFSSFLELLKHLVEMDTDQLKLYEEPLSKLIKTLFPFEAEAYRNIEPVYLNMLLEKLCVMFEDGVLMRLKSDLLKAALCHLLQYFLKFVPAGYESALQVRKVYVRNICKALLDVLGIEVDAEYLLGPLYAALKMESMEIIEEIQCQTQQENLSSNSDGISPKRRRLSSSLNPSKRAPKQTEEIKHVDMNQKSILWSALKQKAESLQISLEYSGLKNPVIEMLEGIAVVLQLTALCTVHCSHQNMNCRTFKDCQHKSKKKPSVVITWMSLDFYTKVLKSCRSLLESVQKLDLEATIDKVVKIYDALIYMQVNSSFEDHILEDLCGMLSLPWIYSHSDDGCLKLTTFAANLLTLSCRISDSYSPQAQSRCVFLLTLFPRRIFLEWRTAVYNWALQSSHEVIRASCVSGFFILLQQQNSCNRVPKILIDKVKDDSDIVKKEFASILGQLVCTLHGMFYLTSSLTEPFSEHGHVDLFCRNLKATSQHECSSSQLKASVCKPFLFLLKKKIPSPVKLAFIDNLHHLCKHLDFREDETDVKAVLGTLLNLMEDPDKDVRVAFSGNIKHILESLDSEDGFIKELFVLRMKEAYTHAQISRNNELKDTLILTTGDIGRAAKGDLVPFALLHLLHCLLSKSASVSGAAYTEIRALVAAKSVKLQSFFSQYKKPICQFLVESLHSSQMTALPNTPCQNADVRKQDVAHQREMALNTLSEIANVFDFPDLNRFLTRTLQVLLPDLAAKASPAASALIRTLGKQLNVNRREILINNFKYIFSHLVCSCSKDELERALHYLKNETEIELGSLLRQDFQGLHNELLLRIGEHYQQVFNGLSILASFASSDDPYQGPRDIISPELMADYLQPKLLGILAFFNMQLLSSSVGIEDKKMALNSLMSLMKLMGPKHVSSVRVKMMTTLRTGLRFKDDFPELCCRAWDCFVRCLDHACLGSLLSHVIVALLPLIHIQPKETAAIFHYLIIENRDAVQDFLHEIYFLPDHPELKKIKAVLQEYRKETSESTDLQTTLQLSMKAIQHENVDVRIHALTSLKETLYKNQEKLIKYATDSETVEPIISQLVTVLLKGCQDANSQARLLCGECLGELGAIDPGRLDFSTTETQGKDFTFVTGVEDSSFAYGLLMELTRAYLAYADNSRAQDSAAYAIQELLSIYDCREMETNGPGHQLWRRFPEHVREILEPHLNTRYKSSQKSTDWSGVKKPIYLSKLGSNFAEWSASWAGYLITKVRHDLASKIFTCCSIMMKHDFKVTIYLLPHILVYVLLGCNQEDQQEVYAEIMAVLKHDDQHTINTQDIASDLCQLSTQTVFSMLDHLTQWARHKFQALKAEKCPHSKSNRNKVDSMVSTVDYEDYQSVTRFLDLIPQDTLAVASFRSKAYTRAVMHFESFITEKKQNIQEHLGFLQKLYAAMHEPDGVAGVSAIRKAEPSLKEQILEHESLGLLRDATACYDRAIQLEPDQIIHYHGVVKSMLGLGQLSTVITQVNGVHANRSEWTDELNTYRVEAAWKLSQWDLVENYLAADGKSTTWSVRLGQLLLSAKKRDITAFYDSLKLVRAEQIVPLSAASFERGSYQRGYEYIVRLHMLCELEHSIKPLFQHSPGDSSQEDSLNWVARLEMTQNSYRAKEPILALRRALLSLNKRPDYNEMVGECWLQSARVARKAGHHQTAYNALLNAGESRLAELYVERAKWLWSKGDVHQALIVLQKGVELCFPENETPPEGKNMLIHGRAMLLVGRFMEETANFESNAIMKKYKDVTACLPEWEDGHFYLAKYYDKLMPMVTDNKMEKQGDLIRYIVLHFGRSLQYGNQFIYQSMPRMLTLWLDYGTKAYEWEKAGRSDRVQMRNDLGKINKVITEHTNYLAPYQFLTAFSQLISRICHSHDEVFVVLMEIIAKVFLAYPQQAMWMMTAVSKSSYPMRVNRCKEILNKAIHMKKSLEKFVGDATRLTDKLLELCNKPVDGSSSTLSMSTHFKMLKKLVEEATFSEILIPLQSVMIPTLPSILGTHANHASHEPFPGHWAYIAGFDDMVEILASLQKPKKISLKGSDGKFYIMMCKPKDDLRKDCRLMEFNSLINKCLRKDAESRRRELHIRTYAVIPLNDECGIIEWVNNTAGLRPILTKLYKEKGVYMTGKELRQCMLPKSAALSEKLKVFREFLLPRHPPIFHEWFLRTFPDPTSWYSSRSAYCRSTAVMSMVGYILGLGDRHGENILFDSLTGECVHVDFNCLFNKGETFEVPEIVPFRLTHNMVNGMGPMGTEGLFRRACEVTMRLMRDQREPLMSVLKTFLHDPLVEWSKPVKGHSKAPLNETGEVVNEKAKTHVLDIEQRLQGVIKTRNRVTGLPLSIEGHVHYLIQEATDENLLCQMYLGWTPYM

Biological target: full-length ATR (Homo sapiens (Human), UniProt Q13535)
Experiment: ATR inhibition assay (radioactive-phosphate incorporation)
Format: biochemical
Details: read-out: ATR Ki; ATR Inhibition Ki values; 5 nM full-length ATR, 10 μM ATP

Ki: 10 to 100 nM
Structure (SMILES): Cc1cccc2nc(-c3nc(-c4ccc(C(=O)N5CC[C@@H](N(C)C)C5)cc4)cnc3N)[nH]c12
